Experimental data from US20150065436A1, “INHIBITING INTERACTION BETWEEN HIF-1ALPHA AND p300/CBP WITH HYDROGEN BOND SURROGATE-BASED HELICES” (UNIVERSITY OF SOUTHERN CALIFORNIA, priority 2013, published 2015).

The chains behind the UniProt entries cited, without tags or fusion partners. Residues count along the entry.
UniProt Q09472, 323-423: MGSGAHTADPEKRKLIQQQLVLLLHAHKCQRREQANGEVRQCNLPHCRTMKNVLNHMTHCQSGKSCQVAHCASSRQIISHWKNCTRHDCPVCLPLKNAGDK

Molecular target: T1, p300-CH1 (Homo sapiens, UniProt Q09472)
T1 construct: human p300 CH1 domain (amino acid residues 323-423); GST (cleaved yes); made in house; host or cells: E. coli BL21 (DE3)
Assay: Binding of HIF-1α C-TAD786-826 to purified p300-CH1 samples expressed at varying Zn2+ levels
Conditions: p300-CH1 samples from growth media with slightly changed Zn2+ concentrations; read-out: Kd of different purified protein samples
Source text: The CH1 domain of p300/CBP is stabilized by three zinc ions. Prior NMR structural studies have shown that the purified protein can rapidly aggregate in a buffer with excess or deficiency in Zn^2+ (Patgiri et al., “A Hydrogen Bond Surrogate Approach for Stabilization of Short Peptide Sequences in Alpha-Helical Conformation,” Acc. Chem. Res. 41(10):1289-300 (2008), which is hereby incorporated by reference in its entirety). […] The difficulty in working with this protein is directly correlated with its expression protocol, and slight changes in the concentrations of Zn^2+ in the bacterial growth media, supplemented with ZnSO4, could lead to purified protein samples that bind with different binding affinities (Kd˜30 nM-2 μM) to HIF-1αC-TAD786-826. To overcome this variability, ^15N labeled protein was prepared and peak dispersion (and protein folding) was monitored by ^1H-^15N HSQC NMR experiments (FIGS. 8A-D).

## CC[C@H](C)[C@H](NC(=O)[C@@H]1CCCN1C(=O)[C@H](C)NC(=O)[C@H](CC(N)=O)NC(=O)[C@@H](NC(=O)[C@H](CCC(=O)O)NC(=O)[C@H](CS)NC(=O)[C@H](CC(=O)O)NC(=O)[C@H](Cc1ccc(O)cc1)NC(=O)[C@H](CO)NC(=O)[C@@H](NC(=O)[C@H](CC(C)C)NC(=O)[C@H](CCC(N)=O)NC(=O)[C@@H]1CCCN1C(=O)[C@H](CC(C)C)NC(=O)CNC(=O)[C@H](CO)NC(=O)[C@H](CCC(=O)O)NC(=O)[C@H](CC(=O)O)NC(=O)[C@H](CCSC)NC(=O)[C@@H](N)CO)[C@@H](C)O)C(C)C)C(=O)N[C@@H](CCC(N)=O)C(=O)NCC(=O)N[C@@H](CO)C(=O)N[C@@H](CCCNC(=N)N)C(=O)N[C@@H](CC(N)=O)C(=O)N[C@@H](CC(C)C)C(=O)N[C@@H](CC(C)C)C(=O)N[C@@H](CCC(N)=O)C(=O)NCC(=O)N[C@@H](CCC(=O)O)C(=O)N[C@@H](CCC(=O)O)C(=O)N[C@@H](CC(C)C)C(=O)N[C@@H](CC(C)C)C(=O)N[C@@H](CCCNC(=N)N)C(=O)N[C@@H](C)C(=O)N[C@@H](CC(C)C)C(=O)N[C@@H](CC(=O)O)C(=O)N[C@@H](CCC(N)=O)C(=O)N[C@H](C(=O)N[C@@H](CC(N)=O)C(=O)O)C(C)C [HIF-1αC-TAD786-826]
  Kd: 30 to 2000 nM
